In article PMC7723054:
The list shows a part of the results.

T1: LIN28A (human?, UniProt Q9H9Z2 1-209)
T1 sequence: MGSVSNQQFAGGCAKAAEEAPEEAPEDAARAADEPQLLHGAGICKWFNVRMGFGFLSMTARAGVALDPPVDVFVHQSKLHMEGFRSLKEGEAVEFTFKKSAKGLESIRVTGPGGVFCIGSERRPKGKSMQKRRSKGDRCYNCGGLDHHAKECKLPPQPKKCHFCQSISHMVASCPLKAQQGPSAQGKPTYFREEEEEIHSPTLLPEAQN

T2: CIRBP (Homo sapiens, UniProt Q14011 1-172)
T2 sequence: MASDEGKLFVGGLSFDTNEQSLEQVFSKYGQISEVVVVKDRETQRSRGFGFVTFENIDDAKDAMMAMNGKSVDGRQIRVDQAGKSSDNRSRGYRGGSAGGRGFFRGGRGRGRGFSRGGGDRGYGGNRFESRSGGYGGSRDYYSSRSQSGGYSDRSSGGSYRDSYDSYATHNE

T3: DHX36 (Homo sapiens, UniProt Q9H2U1 1-1008)
T3 sequence: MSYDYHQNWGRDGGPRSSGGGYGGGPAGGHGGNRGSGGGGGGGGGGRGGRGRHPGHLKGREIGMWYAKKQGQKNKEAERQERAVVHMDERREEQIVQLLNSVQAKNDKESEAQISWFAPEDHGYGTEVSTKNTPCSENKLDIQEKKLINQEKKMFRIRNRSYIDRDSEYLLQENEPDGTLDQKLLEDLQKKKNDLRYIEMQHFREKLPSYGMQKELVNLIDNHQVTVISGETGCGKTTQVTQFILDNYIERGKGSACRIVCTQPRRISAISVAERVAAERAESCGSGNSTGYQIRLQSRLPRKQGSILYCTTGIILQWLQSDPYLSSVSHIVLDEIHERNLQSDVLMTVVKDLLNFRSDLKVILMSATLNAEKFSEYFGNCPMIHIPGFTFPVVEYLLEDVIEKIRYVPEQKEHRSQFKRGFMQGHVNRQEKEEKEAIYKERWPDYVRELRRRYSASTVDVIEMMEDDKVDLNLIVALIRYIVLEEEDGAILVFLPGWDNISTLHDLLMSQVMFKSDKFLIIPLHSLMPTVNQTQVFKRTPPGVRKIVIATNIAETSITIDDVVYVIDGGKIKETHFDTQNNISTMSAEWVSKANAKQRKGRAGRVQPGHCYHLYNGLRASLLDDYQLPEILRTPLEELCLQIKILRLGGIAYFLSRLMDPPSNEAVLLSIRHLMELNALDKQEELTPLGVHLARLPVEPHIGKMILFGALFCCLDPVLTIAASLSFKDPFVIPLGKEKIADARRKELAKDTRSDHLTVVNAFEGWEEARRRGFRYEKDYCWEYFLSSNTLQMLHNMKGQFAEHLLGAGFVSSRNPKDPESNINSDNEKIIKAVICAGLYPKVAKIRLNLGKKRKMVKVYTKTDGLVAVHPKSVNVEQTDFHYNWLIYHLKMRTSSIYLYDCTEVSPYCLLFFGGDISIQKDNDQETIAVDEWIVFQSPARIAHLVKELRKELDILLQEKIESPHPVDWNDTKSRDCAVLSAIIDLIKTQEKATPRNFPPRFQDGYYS


Assays:
Test in all cases: FOREST: bead pull-down of RNA structure library v1, barcode microarray; U1A/LIN28A: 20 mM HEPES pH 7.5, 80 mM KCl, 20 mM NaCl, 10% glycerol, 2 mM DTT, 0.1 ug/uL BSA, 4 C; BG4/CIRBP/DHX36: 10 mM Tris-HCl pH 7.5, 100 mM KCl (or LiCl),; high values mean tight binding
[1] = target: T1, LIN28A
[2] = target: T2, CIRBP
[3] = target: T3, DHX36

Binder	binding signal [1]	binding signal [2]	binding signal [3]
hsa-mir-3122 (structured_RNA) RNA: GGGAAAGGACUCGUCAUUCCGGAUGCUCGGUGUACGAAGUUUCAGCUCUUCUUUUGGAAGGAAGAGCUGAAGCUUCGUGCAC	-0.967 z-score	-0.583 z-score	0.226 z-score
hsa-mir-1302-11_1302-10_1302-3_1302-2_1302-9 (structured_RNA) RNA: GGGAAGCAGACGUACGAAUCCGCAGUCCGGUGUACGAAGUUUCAGCCCAAGCUUAGUUUGGGCUGAAGCUUCGUGCAC	-0.975 z-score	-0.402 z-score	-0.659 z-score
hsa-mir-6072 (structured_RNA) RNA: GGGAACCUAAAGCAUGUGCGACUGUGAUGGUGUACGAAGUUUCAGCCUUUGCUACUGCUCGCUGAAGCUUCGUGCAC	-1.03 z-score	-0.308 z-score	-0.541 z-score
hsa-mir-4706 (structured_RNA) RNA: GGGACGAAUGCCAGAAGCAUGCUACUCAGGUGUACGAAGUUUCAGCGCUUCUGCGUUAUCUGGAAGGGCUGAAGCUUCGUGCAC	-1.03 z-score	-1.01 z-score	-1.68 z-score
hsa-mir-4656 (structured_RNA) RNA: GGGAACCAGUAAUACGGGAGAACAGUCCGGUGUACGAAGUUUCAGCCUGUGGCCGGUCCCAGGCUGAAGCUUCGUGCAC	-1.03 z-score	0.394 z-score	-0.571 z-score
hsa-mir-380 (structured_RNA) RNA: GGGAAAGUCCGGGUCCGUAAUGUGACUUGGUGUACGAAGUUUCAGCCAUGCGCUAUCUCUGUGUCGUAUGGCUGAAGCUUCGUGCAC	-0.974 z-score	-0.263 z-score	0.188 z-score
hsa-mir-3185 (structured_RNA) RNA: GGGAACAGUGCAGCAAGCGGUCACUUACGGUGUACGAAGUUUCAGCGCGGGAGCCAGGCCGCGCUGAAGCUUCGUGCAC	-0.984 z-score	0.429 z-score	0.159 z-score
hsa-mir-548d-1 (structured_RNA) RNA: GGGAAACACUGGUAGCUCGUAGAACCCCGGUGUACGAAGUUUCAGCUUUGCCUGUAAAAGUAAUGGCAAAGCUGAAGCUUCGUGCAC	-1.03 z-score	-0.311 z-score	-1.5 z-score
hsa-mir-6717 (structured_RNA) RNA: GGGCAAUCCGAUGAUGGGCUCAACUCCCGGUGUACGAAGUUUCAGCGAGACAACUUCCCAGUCUCGCUGAAGCUUCGUGCAC	-1.02 z-score	-0.66 z-score	-0.262 z-score
hsa-mir-571 (structured_RNA) RNA: GGGAAGAAAUACUGGGUCUACGUCAAAAGGUGUACGAAGUUUCAGCUUCCUUGUCUGUAGCCAUGUCUAUGGGCUCUUGAGGCUGAAGCUUCGUGCAC	-0.985 z-score	0.609 z-score	-0.289 z-score
hsa-mir-548f-3 (structured_RNA) RNA: GGGAAAGGCGAGUCUAUUUGUAAACCUGGGUGUACGAAGUUUCAGCUUUUGCAGUUUUUUUAAGUAAUUGCAAAAGCUGAAGCUUCGUGCAC	-0.977 z-score	-0.102 z-score	-0.548 z-score
hsa-mir-4520-1 (structured_RNA) RNA: GGGAACUAAAUUGGCCGAUUCAGCUGACGGUGUACGAAGUUUCAGCCCAAAUCAGAAAAGGAUUUGGGCUGAAGCUUCGUGCAC	-0.983 z-score	-0.74 z-score	-0.751 z-score
hsa-mir-4272 (structured_RNA) RNA: GGGAAGAAUCAUGCGUGGGCCUCGAUCUGGUGUACGAAGUUUCAGCAAUGCAUAGAAAGCAUUGCUGAAGCUUCGUGCAC	-1.01 z-score	0.27 z-score	0.63 z-score
hsa-mir-4477a (structured_RNA) RNA: GGGAACACAAGUUGGCCGUAGCAUCCAGGGUGUACGAAGUUUCAGCAUGGCAUUUAAGGAUUGCUAUGCUGAAGCUUCGUGCAC	-0.981 z-score	-0.199 z-score	-0.378 z-score
hsa-mir-5698 (structured_RNA) RNA: GGGAAAUUGUGGGUCGAGCAUAUUGCCCGGUGUACGAAGUUUCAGCGUGGAAUGCAAAGUCCCACGCUGAAGCUUCGUGCAC	-0.972 z-score	-0.958 z-score	-0.735 z-score
hsa-mir-4423 (structured_RNA) RNA: GGGACCUGCGUGAAACGGAUAUGCCUGAGGUGUACGAAGUUUCAGCCCAUGCUGUUUAAGCCUAGCAUAGGCUGAAGCUUCGUGCAC	-1.03 z-score	0.384 z-score	-0.595 z-score
hsa-mir-4457 (structured_RNA) RNA: GGGAACCGUAGUGCAACCUGACUAGAUAGGUGUACGAAGUUUCAGCGUGAGUUAGAAAAGCUCAAUUCACGCUGAAGCUUCGUGCAC	-1.03 z-score	-0.816 z-score	-0.33 z-score
hsa-mir-96 (structured_RNA) RNA: GGGAAACGCAAGACGGGUCCUCUCCAUGGGUGUACGAAGUUUCAGCUUUUGCUUGUGUCUCUCCGCUCUGAGCAAUCGCUGAAGCUUCGUGCAC	-1.02 z-score	0.561 z-score	-0.517 z-score
hsa-mir-1245a (structured_RNA) RNA: GGGACUAGCUGACAUAUGCGUUCGGAAGGGUGUACGAAGUUUCAGCAUCUGAUGUUGAAUACUCUUUAAGUGCUGAAGCUUCGUGCAC	-0.983 z-score	-0.00146 z-score	-0.816 z-score
hsa-mir-6733 (structured_RNA) RNA: GGGAAUCGAGUUCCAGCCUACACAAGAGGGUGUACGAAGUUUCAGCCAGAGUUCCCUUCUUGUGAGCUCAGGCUGAAGCUUCGUGCAC	-0.993 z-score	0.0471 z-score	0.373 z-score
hsa-mir-922 (structured_RNA) RNA: GGGAAGUAACGUAUGUGCGAAUCUCUGCGGUGUACGAAGUUUCAGCCUGUCCUGGACUGGGGUCAGACUGUGCCCCGAGGAGAAGCAGGCUGAAGCUUCGUGCAC	-1.02 z-score	0.275 z-score	0.245 z-score
hsa-mir-4689 (structured_RNA) RNA: GGGAUGAAGUCGGCUCAGUGCGGUAAGUGGUGUACGAAGUUUCAGCGGCCGGUCAGGCAGCUGAAGCUUCGUGCAC	-0.994 z-score	-0.708 z-score	-0.275 z-score
hsa-mir-548al (structured_RNA) RNA: GGGCAUCGUGCGCCAAUACCCAGGAUUAGGUGUACGAAGUUUCAGCUGUUUUUGCCAUUAAAAAUAAUGGCAUUAAAAGUAAUGGCAAAAACGGCUGAAGCUUCGUGCAC	-0.994 z-score	-1.09 z-score	-1.04 z-score
hsa-mir-3615 (structured_RNA) RNA: GGGAAGGUUUACGCCAACACUUCAAAGGGGUGUACGAAGUUUCAGCGAUUGGUCUGUGGUCCUCUCGCUGAAGCUUCGUGCAC	-0.996 z-score	-0.141 z-score	0.12 z-score
hsa-mir-7-1 (structured_RNA) RNA: GGGAAGAUGUGGCUUCGUAACCAAUCCUGGUGUACGAAGUUUCAGCGUUGUUUUUAGAUAACUAAAUCGACAACGCUGAAGCUUCGUGCAC	-0.975 z-score	-0.239 z-score	-0.149 z-score
hsa-mir-6731 (structured_RNA) RNA: GGGACUGUGUUGUACCCACGCGCAAAAUGGUGUACGAAGUUUCAGCUGGAAGCUCCAGGUGCCAACCACCUGCCUCUAGCUGAAGCUUCGUGCAC	-0.995 z-score	0.149 z-score	-0.593 z-score
